## Ab-14 light chain CDR variants: yeast mating affinities

From the AlphaSeq antibody data of Li et al. 2023 (doi:10.1038/s41467-023-39022-2), copy in the FLAb collection.

Antigen: PDVDLGDISGINAS, a 14-residue peptide of the SARS-CoV-2 spike HR2 region.

The variants keep the heavy chain, the linker and the frameworks of Ab-14 (scFv order VH, a (GGGGS)3 linker, VL).
VH: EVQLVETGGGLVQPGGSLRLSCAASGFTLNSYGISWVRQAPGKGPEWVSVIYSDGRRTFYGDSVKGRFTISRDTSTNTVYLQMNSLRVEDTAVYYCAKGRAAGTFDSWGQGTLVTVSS
VL: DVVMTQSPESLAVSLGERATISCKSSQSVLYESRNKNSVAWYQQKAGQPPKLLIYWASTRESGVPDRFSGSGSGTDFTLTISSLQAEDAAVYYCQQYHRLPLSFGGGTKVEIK

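The starting antibody came from a phage panning campaign against this peptide. These sequences belong to a second round, designed from the earlier measurements on random variants of the parent. Group labels follow the data file (En: ensemble of fine-tuned language models; GP: Gaussian process model; HC: hill climbing; Gen: genetic algorithm; Gibbs: Gibbs sampling; a sequence that several methods proposed may carry one label only). The scFvs were displayed on barcoded MATa yeast, the peptide on MATalpha yeast. Mating (16 h, 30 °C) was followed by selection of diploids and sequencing of their barcodes. A regression on co-assayed BCL2-family reference pairs converts the normalised counts of each replicate to an apparent Kd. The assay was run in six technical replicates.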

Each variant's VL is given in full.
This list holds designs with more than six substitutions.
The Kd shown is the geometric mean over detected replicates; a lower Kd is a better binder.
"not detected" means that the variant was in the library but no mating with the target was seen in any replicate; the authors take this as a sign of poor binding, and no number exists.
Of ten entries with the parent sequence, four were seen in most replicates (averages 2.2 nM to 240 nM), three in one and three in none, so single entries are noisy.
In the paper, a design with two or fewer of six values counts as a poor binder.
As a blank, each scFv also met three strains without target: over all light chain designs, 4% of these pairings were detected, typically at 430 nM and seldom below 38 nM. For each scFv, signals with the empty controls are counted beside the result.
Values of this round are not directly comparable with the first-round values of the same sequences.

VL	group	Kd	replicates with signal	empty controls
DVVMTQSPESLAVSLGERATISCKLVNFMNRGTHHTSNIAWYQQKAGQPPKLLIYDAVNRLDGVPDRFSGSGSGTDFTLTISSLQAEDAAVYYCQQYYRLPLAFGGGTKVEIK	En_Gen	4.2 nM	6 of 6	0 of 18
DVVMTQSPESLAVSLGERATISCMLGNQPTSFRNNKNAIAWYQQKAGQPPKLLIYDDEARTSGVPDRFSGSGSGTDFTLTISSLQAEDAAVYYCQQYDRLPLSFGGGTKVEIK	En_Gibbs	4.3 nM	5 of 6	0 of 18
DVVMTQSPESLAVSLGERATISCIISQSVLGEAHNKNSVAWYQQKAGQPPKLLIYQTSERGSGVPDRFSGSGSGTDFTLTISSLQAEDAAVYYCQQYDRLPLSFGGGTKVEIK	En_HC	6.6 nM	6 of 6	1 of 18
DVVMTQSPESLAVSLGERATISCKISYLQNQTFEQSSNVAWYQQKAGQPPKLLIYEMVTRAKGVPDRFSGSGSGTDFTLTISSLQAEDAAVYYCQQYNRLPLSFGGGTKVEIK	En_Gen	10 nM	6 of 6	0 of 18
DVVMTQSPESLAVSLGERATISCTLMHHQDRYDNWKKSIAWYQQKAGQPPKLLIYEAIIRESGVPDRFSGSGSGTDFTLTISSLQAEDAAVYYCQQYQRLPLAFGGGTKVEIK	En_Gibbs	150 nM	2 of 6	2 of 18
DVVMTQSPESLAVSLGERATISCSMQSDQIEGNQQQNSIAWYQQKAGQPPKLLIYGESIADMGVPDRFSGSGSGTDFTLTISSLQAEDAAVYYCQHYERLPLTFGGGTKVEIK	En_Gibbs	10 nM	6 of 6	0 of 18
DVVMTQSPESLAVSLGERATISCQFARAMYHGGNDNQNIAWYQQKAGQPPKLLIYDAMTYIKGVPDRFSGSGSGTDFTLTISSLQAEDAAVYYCQQYSRLPLIFGGGTKVEIK	En_Gibbs	45 nM	4 of 6	2 of 18
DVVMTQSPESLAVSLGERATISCKLFDELSVEQVNARNVAWYQQKAGQPPKLLIYDALATMEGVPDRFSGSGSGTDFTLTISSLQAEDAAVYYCQQYKMLPLSFGGGTKVEIK	En_Gibbs	1.4 nM	6 of 6	0 of 18
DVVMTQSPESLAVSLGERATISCKLDQSTLYQSRNKQSVAWYQQKAGQPPKLLIYNASQRESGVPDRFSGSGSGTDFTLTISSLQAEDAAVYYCQQYHRLPLSFGGGTKVEIK	GP_Gibbs	630 pM	6 of 6	0 of 18
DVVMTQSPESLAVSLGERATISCMISQLTNMGQFAINSVAWYQQKAGQPPKLLIYQASERSNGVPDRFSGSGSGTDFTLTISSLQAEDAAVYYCQQYDRLPLMFGGGTKVEIK	En_Gen	6.7 nM	6 of 6	3 of 18
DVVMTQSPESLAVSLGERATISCTLYGLSNSMQKEKNNVAWYQQKAGQPPKLLIYEMSTRENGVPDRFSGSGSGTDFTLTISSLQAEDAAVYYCQQYDRLPLIFGGGTKVEIK	En_Gen	not detected	0 of 6	0 of 18
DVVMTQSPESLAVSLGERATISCMMSQVTGMGQRHRNNVAWYQQKAGQPPKLLIYQTNEREPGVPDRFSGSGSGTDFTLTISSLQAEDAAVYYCQQYDRLPLIFGGGTKVEIK	En_Gen	26 nM	6 of 6	1 of 18
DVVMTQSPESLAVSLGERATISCIMSESQERDASRLNNIAWYQQKAGQPPKLLIYDHYTRATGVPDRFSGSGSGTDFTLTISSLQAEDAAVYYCQQYARLPLSFGGGTKVEIK	En_Gibbs	1.3 nM	6 of 6	4 of 18
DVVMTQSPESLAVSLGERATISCKLSMTTEMEHKNRNSVAWYQQKAGQPPKLLIYELVTRMQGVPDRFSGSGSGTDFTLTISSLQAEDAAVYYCQQYNRLPLSFGGGTKVEIK	En_Gen	20 nM	6 of 6	0 of 18
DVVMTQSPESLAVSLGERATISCMISDLTMYGSRNVNSVAWYQQKAGQPPKLLIYDLSNRGSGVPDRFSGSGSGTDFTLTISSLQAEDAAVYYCQQYHRLPLSFGGGTKVEIK	En_HC	10 nM	6 of 6	0 of 18
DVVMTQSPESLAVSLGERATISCIVSQLMLWGLHAKNSIAWYQQKAGQPPKLLIYEAQTRVNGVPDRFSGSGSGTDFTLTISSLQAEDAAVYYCQQYDRLPLFFGGGTKVEIK	En_Gen	33 nM	1 of 6	0 of 18
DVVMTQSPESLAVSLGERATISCKLDMNELGQSQNSNCVAWYQQKAGQPPKLLIYGSAQKCSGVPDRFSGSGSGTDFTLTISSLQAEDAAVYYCQQYSRLPLSFGGGTKVEIK	En_Gibbs	20 nM	6 of 6	0 of 18
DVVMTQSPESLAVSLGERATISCKIRVHNLMFYQNENSIAWYQQKAGQPPKLLIYGVSNRAYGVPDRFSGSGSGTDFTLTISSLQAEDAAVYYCQQYYHLPLTFGGGTKVEIK	En_Gibbs	5.4 nM	6 of 6	0 of 18
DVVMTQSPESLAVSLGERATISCMISQLYNMGQFAINSVAWYQQKAGQPPKLLIYQATERNEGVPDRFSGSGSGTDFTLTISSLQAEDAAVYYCQQYDRLPLIFGGGTKVEIK	En_Gen	37 nM	6 of 6	2 of 18
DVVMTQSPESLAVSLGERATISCSFSQSVLYESVHKNNVAWYQQKAGQPPKLLIYQTSTREDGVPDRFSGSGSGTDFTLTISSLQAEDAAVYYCQQYDHLPLSFGGGTKVEIK	En_HC	2.3 nM	6 of 6	1 of 18
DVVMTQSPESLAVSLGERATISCIIDAIMFHGNKRASSIAWYQQKAGQPPKLLIYQASERVNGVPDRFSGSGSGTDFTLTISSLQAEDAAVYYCQQYHHLPLTFGGGTKVEIK	En_Gen	35 nM	6 of 6	0 of 18